# Results reported in patent US20260159604A1, “USES OF NON-SMALL CELL LUNG CANCER TARGET ARID1A AND INHIBITOR THEREOF IN PREPARATION OF DRUG FOR TREATING LUNG CANCER” (THE FIRST AFFILIATED HOSPITAL OF BENGBU MEDICAL COLLEGE, priority 2021, published 2026).
# Test system: KP and KPAfl/fl tumor-derived organoids
# Assay: Drug sensitivity of BET inhibitors on tumor-derived organoids
# Assay type: cell-based, mouse
# Description: Firstly, lung tumor cells of KP and KPAfl/fl mice were taken for in vitro organoid culture and expansion, and drug sensitivity experiments of five widely used BET inhibitors were conducted on tumor-derived organoids (as shown in FIG. 7 panel A).
structure (smiles),measurement,setting,value
"CCNC(=O)C[C@@H]1N=C(c2ccc(Cl)cc2)c2cc(OC)ccc2-n2c(C)nnc21 [BET762, Molibresib]",number of organoids with increasing drug concentration,"7th day, different drug concentrations",the number of organoids decreased with the increase of drug concentration
same,"formation of tumor-derived organoids, KPAfl/fl versus KP","concentrations of 10 μm and 50 μm, 7th day",selectively impaired the formation of KPAfl/fl tumor-derived organoids
same,sensitivity of ARID1A-deficient lung adenocarcinoma cells to BETi compounds,"summary statement, compared with other BETi",more sensitive
